PMC11005446 (European journal of pharmaceutical sciences : official …, 2021)

Protein sequences, listed by entry. Tags and fused reporters are not part of them. Lines headed by an entry give the natural chain unless they say otherwise; changes in a name come on top.
UniProt Q9NPD5: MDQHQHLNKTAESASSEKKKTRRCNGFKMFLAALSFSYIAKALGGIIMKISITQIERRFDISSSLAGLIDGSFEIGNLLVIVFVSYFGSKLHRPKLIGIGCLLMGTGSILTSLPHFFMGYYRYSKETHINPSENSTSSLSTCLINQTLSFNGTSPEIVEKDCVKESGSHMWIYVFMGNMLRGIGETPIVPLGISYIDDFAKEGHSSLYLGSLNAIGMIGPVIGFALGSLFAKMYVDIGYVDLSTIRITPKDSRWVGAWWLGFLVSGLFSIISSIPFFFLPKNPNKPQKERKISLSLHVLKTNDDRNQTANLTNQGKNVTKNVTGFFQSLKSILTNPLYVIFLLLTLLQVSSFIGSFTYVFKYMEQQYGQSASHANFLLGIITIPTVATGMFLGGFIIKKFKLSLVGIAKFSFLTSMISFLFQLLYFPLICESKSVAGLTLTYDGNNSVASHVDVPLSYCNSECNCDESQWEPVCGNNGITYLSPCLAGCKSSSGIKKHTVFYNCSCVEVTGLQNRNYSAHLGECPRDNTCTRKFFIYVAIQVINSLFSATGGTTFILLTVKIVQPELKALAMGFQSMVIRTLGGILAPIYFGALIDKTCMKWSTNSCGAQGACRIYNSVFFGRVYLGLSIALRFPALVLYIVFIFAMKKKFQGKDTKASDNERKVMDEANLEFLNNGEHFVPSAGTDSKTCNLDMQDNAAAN

Target: OATP1B3 (Homo sapiens, UniProt Q9NPD5)
Experiment: Inhibition of [3H]CCK-8 accumulation in human SCH
Assay type: in vitro ADME
Conditions: for Co-Incubation R / Pre+Co-Incubation R: Hepatocytes, substrate CCK-8, R-value model; for accumulation of [3H]CCK-8 after inhibitor pre-incubation: human SCH, washing

Co-Incubation R	Pre+Co-Incubation R	accumulation of [3H]CCK-8 after inhibitor pre-incubation (1 h pre-incubation at 0.2 μM, model estimate ± SE)	accumulation of [3H]CCK-8 after inhibitor pre-incubation (1 h pre-incubation at 0.5 μM, model estimate ± SE)	accumulation of [3H]CCK-8 after inhibitor pre-incubation (1 h pre-incubation at 0.6 μM)	SMILES
1.02 (1.02–1.03)	1.08 (1.06–1.10)	0.83 ± 0.05 fold of CTL	0.65 ± 0.06 fold of CTL		CO[C@H]1C[C@@H]2CC[C@@H](C)[C@@](O)(O2)C(=O)C(=O)N2CCCC[C@H]2C(=O)O[C@H]([C@H](C)C[C@@H]2CC[C@@H](OCCO)[C@H](OC)C2)CC(=O)[C@H](C)/C=C(\C)[C@@H](O)[C@@H](OC)C(=O)[C@H](C)C[C@H](C)/C=C/C=C/C=C/1C [EVR, everolimus]
1.00 (1.00–1.00)	1.01 (1.00–1.01)			0.68 ± 0.07 fold vs. CTL	CO[C@H]1C[C@@H]2CC[C@@H](C)[C@@](O)(O2)C(=O)C(=O)N2CCCC[C@H]2C(=O)O[C@H]([C@H](C)C[C@@H]2CC[C@@H](O)[C@H](OC)C2)CC(=O)[C@H](C)/C=C(\C)[C@@H](O)[C@@H](OC)C(=O)[C@H](C)C[C@H](C)/C=C/C=C/C=C/1C [SIR, sirolimus]
